{
  "source": "paper PMC8860610",
  "about": "“The fork protection complex recruits FACT to reorganize nucleosomes during replication” (Nucleic Acids Research, 2022)",
  "binders": {"B1": {"name": "full-length (fl) FACT (Spt16-Pob3) (complex, Saccharomyces cerevisiae)", "chain 1": "MEELNIDFDVFKKRIELLYSKYNEFEGSPNSLLFVLGSSNAENPYQKTTILHNWLLSYEFPATLIALVPGKVIIITSSAKAKHLQKAIDLFKDPESKITLELWQRNNKEPELNKKLFDDVIALINSAGKTVGIPEKDSYQGKFMTEWNPVWEAAVKENEFNVIDISLGLSKVWEVKDVNEQAFLSVSSKGSDKFMDLLSNEMVRAVDEELKITNAKLSDKIENKIDDVKFLKQLSPDLSALCPPNYKFNFDLLDWTYSPIIQSGKKFDLRVSARSTNDQLYGNGCILASCGIRYNNYCSNITRTFLIDPSEEMANNYDFLLTLQKEIVTNILKPGRTPKEVYESVIEYIEKTKPELVPNFTKNIGSLIGLEFRDSNFILNVKNDYRKIQRGDCFNISFGFNNLKDSQSANNYALQLADTVQIPLDETEPPRFLTNYTKAKSQISFYFNNEEEDNNKKKSSPATKVPSKPDRNSKILRTKLRGEARGGAEDAQKEQIRKENQKKLHEKLEKNGLLRFSAADANGPDSEPRQYFKKYESYVRDSQLPTNIRDLRIHVDWKSQTIILPIYGRPVPFHINSYKNGSKNEEGEYTYLRLNFNSPGSSGGISKKVEELPYEESADNQFVRSITLRSKDGDRMSETFKQIADLKKEATKREQERKALADVVQQDKLIENKTGRTKRLDQIFVRPNPDTKRVPSTVFIHENGIRFQSPLRTDSRIDILFSNIKNLIFQSCKGELIVVIHIHLKNPILMGKKKIQDVQFYREASDMSVDETGGGRRGQSRFRRYGDEDELEQEQEERRKRAALDKEFKYFADAIAEASNGLLTVENTFRDLGFQGVPNRSAVFCMPTTDCLVQLIEPPFLVINLEEVEICILERVQFGLKNFDMVFVYKDFNKPVTHINTVPIESLDFLKQWLTDMDIPYTVSTINLNWATIMKSLQDDPYQFFLDGGWNFLATGSDDEASDESEEEVSEYEASEDDVSDESAFSEDEEGSEVDDDISGDESEDYTGDESEEGEDWDELEKKAARADRGANFRD", "chain 2": "MSTDFDRIYLNQSKFSGRFRIADSGLGWKISTSGGSAANQARKPFLLPATELSTVQWSRGCRGYDLKINTKNQGVIQLDGFSQDDYNLIKNDFHRRFNIQVEQREHSLRGWNWGKTDLARNEMVFALNGKPTFEIPYARINNTNLTSKNEVGIEFNIQDEEYQPAGDELVEMRFYIPGVIQTNVDENMTKKEESSNEVVPKKEDGAEGEDVQMAVEEKSMAEAFYEELKEKADIGEVAGDAIVSFQDVFFTTPRGRYDIDIYKNSIRLRGKTYEYKLQHRQIQRIVSLPKADDIHHLLVLAIEPPLRQGQTTYPFLVLQFQKDEETEVQLNLEDEDYEENYKDKLKKQYDAKTHIVLSHVLKGLTDRRVIVPGEYKSKYDQCAVSCSFKANEGYLYPLDNAFFFLTKPTLYIPFSDVSMVNISRAGQTSTSSRTFDLEVVLRSNRGSTTFANISKEEQQLLEQFLKSKNLRVKNEDREVQERLQTALGSDSDEEDINMGSAGEDDESVDEDFQVSSDNDADEVAEEFDSDAALSDAEGGSDEERPSKKPKVE"}},
  "biological_target": "T1, Tof1ΔC-Csm3 (Tof1ΔC 1-937 aa) (Saccharomyces cerevisiae, UniProt P53840 1-937; Q04659 1-317)",
  "T1 sequence (looked up) 1": "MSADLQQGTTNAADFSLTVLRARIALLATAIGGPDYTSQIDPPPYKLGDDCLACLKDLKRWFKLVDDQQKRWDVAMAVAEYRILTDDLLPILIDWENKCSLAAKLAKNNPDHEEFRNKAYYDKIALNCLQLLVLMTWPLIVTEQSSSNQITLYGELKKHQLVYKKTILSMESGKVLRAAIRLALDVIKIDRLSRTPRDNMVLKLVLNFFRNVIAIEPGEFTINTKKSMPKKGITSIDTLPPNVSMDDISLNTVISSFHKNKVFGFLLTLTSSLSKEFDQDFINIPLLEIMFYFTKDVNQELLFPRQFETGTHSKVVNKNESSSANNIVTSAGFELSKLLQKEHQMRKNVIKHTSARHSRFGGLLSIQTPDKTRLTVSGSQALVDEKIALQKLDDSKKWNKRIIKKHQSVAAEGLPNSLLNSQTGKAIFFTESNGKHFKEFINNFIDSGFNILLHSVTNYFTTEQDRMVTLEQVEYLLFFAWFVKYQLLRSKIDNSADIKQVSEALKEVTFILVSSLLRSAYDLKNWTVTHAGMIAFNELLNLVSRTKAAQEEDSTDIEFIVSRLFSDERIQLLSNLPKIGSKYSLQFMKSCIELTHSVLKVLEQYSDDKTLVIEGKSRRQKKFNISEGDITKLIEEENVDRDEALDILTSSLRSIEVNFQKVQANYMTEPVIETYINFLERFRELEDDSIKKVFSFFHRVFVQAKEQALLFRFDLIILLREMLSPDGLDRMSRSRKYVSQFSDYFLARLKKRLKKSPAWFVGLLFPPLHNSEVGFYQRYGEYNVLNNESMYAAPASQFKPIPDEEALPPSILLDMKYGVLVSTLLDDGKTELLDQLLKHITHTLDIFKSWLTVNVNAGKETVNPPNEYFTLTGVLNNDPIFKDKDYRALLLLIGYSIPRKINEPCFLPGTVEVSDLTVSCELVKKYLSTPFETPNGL",
  "T1 sequence (looked up) 2": "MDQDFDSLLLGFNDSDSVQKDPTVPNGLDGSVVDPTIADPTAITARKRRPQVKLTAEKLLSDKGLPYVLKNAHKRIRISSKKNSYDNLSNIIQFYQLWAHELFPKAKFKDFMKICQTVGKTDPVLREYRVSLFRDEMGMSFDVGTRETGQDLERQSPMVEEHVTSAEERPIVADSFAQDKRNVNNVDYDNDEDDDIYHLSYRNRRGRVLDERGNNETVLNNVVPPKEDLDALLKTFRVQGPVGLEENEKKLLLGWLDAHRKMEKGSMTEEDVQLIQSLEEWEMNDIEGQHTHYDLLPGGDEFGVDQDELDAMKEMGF",
  "test": "cell-based or functional assay",
  "data": [
    {"binder": "B1", "values": [
      {"measurement": "decrease in in vitro chromatin replication (leading-strand length), 50 nM FACT with 20 nM Tof1ΔC-Csm3 against fl Tof1-Csm3; recovered by 8-fold excess of FACT", "result": 66, "unit": "%"}
    ]}
  ]
}
